From US20060264508A1, “Modulation of ocular growth and myopia by gaba drugs” (priority 2001, published 2006)

Test system: goggled eyes (form-deprivation myopia)
Details: at the doses used; in vivo ocular examinations or inspection of bisected enucleated eyes

Br.COc1ccc(-c2ccc(=N)n(CCCC(=O)O)n2)cc1 [SR95531, 6-imino-3-(4-methoxy-phenyl)-1(6H)-pyridazinebutanoic acid hydrobromide]
ocular toxicity: did not cause any ocular toxicity
